{"source": "patent US12311136B2", "about": "“Using alternating electric fields to increase permeability of the blood brain barrier” (Novocure GmbH, priority 2020, dated 2025)", "test_system": "artificial BBB (murine brain capillary endothelial cells, cerebEND)", "details": "100 kHz alternating electric fields for 72 hours; 4 kDa FITC-dextrans", "data": [{"substance": "fluoresceine isothiocyanate coupled to dextran [FITC-dextrans]", "values": [{"measurement": "permeability of the artificial BBB to FITC-dextrans", "result": "110 % of the control"}]}]}
